# Binding of CDR-mutated scFvs to a peptide of the spike HR2 region

The target is the same throughout: PDVDLGDISGINAS, from the HR2 region of SARS-CoV-2 spike.

Parent: Ab-14, a human scFv built as VH, three GGGGS repeats, VL. Only the CDRs of the light chain vary.
VH: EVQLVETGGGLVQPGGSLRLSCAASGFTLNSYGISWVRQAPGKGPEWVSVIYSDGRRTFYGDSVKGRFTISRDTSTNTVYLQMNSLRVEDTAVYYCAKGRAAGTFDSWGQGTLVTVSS
VL: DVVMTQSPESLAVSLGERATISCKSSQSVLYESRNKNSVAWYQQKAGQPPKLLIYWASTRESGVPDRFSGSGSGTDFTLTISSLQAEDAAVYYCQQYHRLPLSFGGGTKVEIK

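The starting antibody came from a phage panning campaign against this peptide. AAYL50 was designed without a model: most single CDR substitutions and a random sample of double and triple ones. The scFvs were displayed on barcoded MATa yeast, the peptide on MATalpha yeast. After mating in shaken culture at 30 °C for 16 h, diploids were selected and their barcode pairs sequenced. A regression on co-assayed BCL2-family reference pairs converts the normalised counts of each replicate to an apparent Kd. There are three technical replicates.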

Each variant is given by its three light chain CDRs, as the data file delimits them; those of the parent are KSSQSVLYESRNKNSVA, WASTRES, QQYHRLPLS. Values are log10 of the apparent Kd in nM; lower means stronger binding. An entry "ND" has no value in the source: the pair was not observed among the diploids in that replicate. This suggests poor binding but is not conclusive. As a blank, each scFv also met three strains without target: over library AAYL50, 18% of these pairings were detected, typically at 4.19 and seldom below 2.99. Also given: how often the same scFv was detected with the empty control strains, with their mean in brackets.

CDR-L1,CDR-L2,CDR-L3,"replicates, log10 nM",signal with controls
KSSQSVLYESRNKNSVA,EPSTRES,QQYHRCPLS,3.63 3.03 ND,3 of 9 (3.48)
KSSQSVFYESRNKNSVA,WASTRES,QQYHRLPNS,1.09 1.00 1.42,0 of 9
KSSQSVLYESRNKNLVA,WASTREK,QQYHRLPLS,ND ND ND,0 of 9
KSSQSVLYESRNKNSVA,WESTRES,QQYHKLPHS,3.29 ND ND,0 of 9
KNSQSVLYESRNKNSVA,WASFRES,QQYHRSPLS,ND ND ND,3 of 9 (3.79)
KSSQSVLYESRNKNSVA,WASTRYS,QQDWRLPLS,ND ND ND,2 of 9 (4.09)
KSSQSQLYESSNKNSVF,WASTRES,QQYHRLPLS,ND ND ND,0 of 9
KSSQSVLYESWNKNSVA,WASTRES,QQYHRLFLH,1.29 1.60 1.46,1 of 9 (2.98)
KSSQSVQYESRNKNSVE,HASTRES,QQYHRLPLS,ND ND ND,2 of 9 (3.97)
KSSQSVLYESRHKNSVA,WASTREL,QQYMRLPLS,1.87 2.50 2.78,1 of 9 (3.95)
KSSQSVLCESRNKNSVA,HASTRES,QQYHRLFLS,ND ND ND,0 of 9
KSSQSVLYESRKKNSVA,WASTRES,MQYHRLILS,ND ND ND,0 of 9
KSSQSVLYESRNKNSVA,WAGTREL,QQYHRLYLS,1.78 1.90 1.92,2 of 9 (4.16)
KSSQSALYESKNKNSVA,WASTRES,QQRHRLPLS,ND ND ND,4 of 9 (4.27)
KKSQSVLYESRNKNSVA,WASTRLS,QQDHRLPLS,2.63 3.07 2.71,1 of 9 (4.75)
KSSPSVLYESRNKNSVA,WFSTRES,QQYHRLPPS,ND 4.26 ND,1 of 9 (4.41)
KSTQSVLYESTNKNSVA,WASTRES,PQYHRLPLS,3.18 2.80 2.34,0 of 9
KSSQSVLYESRNSNSVA,IASTRES,QQYHRLPLQ,3.67 3.27 3.39,2 of 9 (5.80)
TSSQMVLYESRNKNSVA,WASTRES,QQYHRLPLF,4.50 3.29 ND,7 of 9 (4.67)
KSVQSVLAESRMKNSVA,WASTRES,QQYHRLPLS,ND ND ND,0 of 9
KSSQSVLYESRNENSVA,WASTRDS,QQYHRNPLS,ND ND ND,0 of 9
KSSQSVLYESRNKNSVA,WWSTRES,QQYHDLPLF,ND ND ND,1 of 9 (3.62)
KSSQSVLYESFNKNSIT,WASTRES,QQYHRLPLS,ND ND 5.12,1 of 9 (4.49)
KTSQSVLYESRNKNLVA,WISTRES,QQYHRLPLS,0.67 0.86 0.83,2 of 9 (3.71)
KSSQSVLYESRNKNSVP,WASYRES,QQYHRLPLS,ND ND ND,1 of 9 (3.59)
KCSQSVLYESRNKNSVA,KASCRES,QQYHRLPLS,0.35 0.36 0.62,0 of 9
KSSQSELYESRNKNSVA,WASTRIS,QQYHHLPLS,-0.05 0.27 0.40,0 of 9
KYSQSVLYESRNKNSVA,WASTRES,QQYHRLHGS,ND ND ND,1 of 9 (4.32)
KSSQSFLYESRNPNSVA,WASTRES,QQYHILPLS,ND 3.80 ND,1 of 9 (3.60)
KSSLSVLYESRNKNSVA,TASTRES,QQYHRLYLS,1.03 1.13 1.24,3 of 9 (5.22)
KSHQSPLYESRNKNSVA,WASTRES,QQYHRGPLS,ND ND ND,2 of 9 (3.11)
KSSQSVLYESRNKNWVA,WAMTRES,QQYHMLPLS,ND 3.45 5.19,1 of 9 (5.45)
KSSQKVLYESRNKNSVA,WASTRES,QDYRRLPLS,1.22 1.19 1.01,0 of 9
KSSQNVLYESCCKNSVA,WASTRES,QQYHRLPLS,0.94 1.05 0.85,5 of 9 (5.28)
KSSFSVLYESRNKNSVA,WASERES,QQYHRLPLS,0.63 0.80 0.83,1 of 9 (3.20)
KSSQSVLYESRNKCSVA,WASQRGS,QQYHRLPLS,2.47 1.96 1.90,0 of 9
KSSQSVLYESRNQNSVA,WASTAES,QQYHRNPLS,ND 3.86 ND,2 of 9 (4.18)
KSSQSVLYESRNKNSVG,LASTRES,QQSHRLPLS,ND 4.24 ND,3 of 9 (4.71)
KSSQSVLYESRNKNQVA,WAVTRYS,QQYHRLPLS,1.02 1.98 2.07,0 of 9
KSSQSVLYESANKNSVA,WASTRFS,QQYHRLFLS,3.18 2.02 2.50,2 of 9 (3.23)
KSSQSVLRESRNKCSFA,WASTRES,QQYHRLPLS,4.19 5.64 ND,8 of 9 (4.71)
KSSQSVLYESRNKNKVA,WASTRES,CQYHKLPLS,4.51 ND ND,4 of 9 (4.57)
KSSQSWLYESRNKNSVA,WASTRES,QQYHRLPCS,ND ND ND,0 of 9
KSSQSVLYEPRNKNSVA,WASIRES,QQYHRLPGS,0.65 1.09 1.12,1 of 9 (3.83)
SSSQSVLYFSRNKNSVC,WASTRES,QQYHRLPLS,4.40 4.44 ND,7 of 9 (4.72)
KSDQSVEYESRNKNSVA,WASTRES,QKYHRLPLS,1.64 1.49 1.54,3 of 9 (3.93)
KSSQSVLYESRNKNSVH,VASTAES,QQYHRLPLS,ND ND ND,1 of 9 (3.86)
KSSQWVLYYSRNKNSVA,CASTRES,QQYHRLPLS,2.99 3.81 4.17,2 of 9 (4.17)

6 of these entries, quoted again:

{"CDR-L1": "KSSQSVLYESWNKNSVA", "CDR-L2": "WASTRES", "CDR-L3": "QQYHRLFLH", "replicates, log10 nM": "1.29 1.60 1.46", "signal with controls": "1 of 9 (2.98)"}
{"CDR-L1": "KSSQSVLYESRNKNSVH", "CDR-L2": "VASTAES", "CDR-L3": "QQYHRLPLS", "replicates, log10 nM": "ND ND ND", "signal with controls": "1 of 9 (3.86)"}
{"CDR-L1": "KSSQSVLYESANKNSVA", "CDR-L2": "WASTRFS", "CDR-L3": "QQYHRLFLS", "replicates, log10 nM": "3.18 2.02 2.50", "signal with controls": "2 of 9 (3.23)"}
{"CDR-L1": "TSSQMVLYESRNKNSVA", "CDR-L2": "WASTRES", "CDR-L3": "QQYHRLPLF", "replicates, log10 nM": "4.50 3.29 ND", "signal with controls": "7 of 9 (4.67)"}
{"CDR-L1": "KSSQSVLYESRNKNSVA", "CDR-L2": "WASTRYS", "CDR-L3": "QQDWRLPLS", "replicates, log10 nM": "ND ND ND", "signal with controls": "2 of 9 (4.09)"}
{"CDR-L1": "KSSQSVLYESFNKNSIT", "CDR-L2": "WASTRES", "CDR-L3": "QQYHRLPLS", "replicates, log10 nM": "ND ND 5.12", "signal with controls": "1 of 9 (4.49)"}

From the AlphaSeq antibody data of Engelhart et al. 2022 (doi:10.1038/s41597-022-01779-4), copy in the FLAb collection.